Test results taken from article PMC9486168, “Protein-protein interaction-based high throughput screening for adenylyl cyclase 1 inhibitors: Design, implementation, and discovery of a novel chemotype” (Frontiers in Pharmacology, 2022).

Tests used:
[1] = molecular target: T1, AC8-C2b/CaM (Homo sapiens, UniProt P0DP23); assay: AC8-C2b/CaM FP counterscreen assay; format: binding; conditions: ratio >1: more potent in AC1/CaM FP;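 further: fluorescence polarization of AC peptide binding to GST-CaM in HEPES buffer with KCl and 50 µM CaCl2, compound preincubated 30 min with GST-CaM, DMSO and calmidazolium as controls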
T1 construct: made in house; host or cells: E. coli BL21-CodonPlus (DE3)-RIPL

[2] = molecular target: T2, CaM (Homo sapiens, UniProt P0DP23); assay: 1H-15N HSQC NMR of 15N-CaM with compound; format: binding; conditions: 5 equivalent molar excess over 100 μM CaM
T2 construct: 6X-His-GST (N, cleaved yes); made in house; host or cells: E. coli BL21-CodonPlus (DE3)-RIPL in M9 minimal media with 15NH4Cl
Method: All NMR samples contained 100 μM ^15N-CaM in 20 mM HEPES pH 7.4, 100 mM KCl, 10 mM CaCl2, 10% D2O, and 5% DMSO. Initial spectra were collected for CaM alone before individual compounds were titrated to observe chemical shift perturbations. All spectra were acquired at 298 K using a 600 MHz Bruker Avance NEO NMR spectrometer with a triple resonance gradient cryoprobe. NMR spectra were processed using NMRPipe and analyzed using NMRFAM-SPARKY.

Ki ratio (AC8-C2b/AC1) [1]: ~3 and 3.1
chemical shift perturbations (CSP) of 15N-CaM [2]: largest CSPs
SMILES: CCc1oc2ccccc2c1C(=O)c1cc(Br)c(O)c(Br)c1 [Compound 12, Benzbromarone]

Several values for one entry are separate records, joined by “and”; a condition that tells them apart may be missing. Equal values may be shown once.
